Source: US20230103444A1 (The Regents of the University of Colorado, a Body Corporate, priority 2020, published 2023)

Assays:
[1] = Pharmacokinetics in CD-1 mice; conditions: for half-life: female, CD-1, mouse, 50 mg/kg; for In vivo Half-Life: plasma half-life
[2] = Mouse liver microsome stability; conditions: for in vitro liver microsome half-life: second series, different liver microsome preparation
cat-CHD1L ATPase = target: T1, cat-CHD1L ATPase (Homo sapiens, UniProt Q86WJ1); test: CHD1L ATPase assay with recombinant catalytic domain (cat-CHD1L); format: biochemical; conditions: for CHD1L enzyme inhibition, in words: recombinant cat-CHD1L
T1 construct: inferred from Ni-NTA / imidazole purification; made in house; host or cells: E. coli Rosetta 2 (DE3) pLysS; constructs were a gift from Helena Berglund, Karolinska Institute
T1 sequence (Q86WJ1 16-611 limits assumed): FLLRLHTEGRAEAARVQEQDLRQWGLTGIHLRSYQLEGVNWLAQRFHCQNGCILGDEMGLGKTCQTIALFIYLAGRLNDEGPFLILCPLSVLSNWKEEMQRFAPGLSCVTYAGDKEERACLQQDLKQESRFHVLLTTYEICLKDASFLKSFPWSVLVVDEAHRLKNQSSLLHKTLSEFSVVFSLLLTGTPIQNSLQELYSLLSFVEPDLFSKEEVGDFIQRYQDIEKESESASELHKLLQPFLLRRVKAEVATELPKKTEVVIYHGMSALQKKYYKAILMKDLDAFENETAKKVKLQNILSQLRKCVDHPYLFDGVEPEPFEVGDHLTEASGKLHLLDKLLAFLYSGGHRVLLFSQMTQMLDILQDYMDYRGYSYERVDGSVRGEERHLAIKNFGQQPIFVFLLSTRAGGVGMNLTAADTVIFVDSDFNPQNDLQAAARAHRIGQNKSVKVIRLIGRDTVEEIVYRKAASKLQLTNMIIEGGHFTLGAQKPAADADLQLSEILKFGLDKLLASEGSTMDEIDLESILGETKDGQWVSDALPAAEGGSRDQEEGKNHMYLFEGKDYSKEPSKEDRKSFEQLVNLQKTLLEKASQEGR

[3] = Table 6, read-out: cat-CHD1L inhibition IC50

Structure (SMILES) | half-life ([1]; in vivo) [h] | half-life ([1]; in vivo, ip) [h] | In vivo Half-Life [1] [h] | in vitro liver microsome half-life [2] | CHD1L enzyme inhibition, in words (cat-CHD1L ATPase) | IC50 (cat-CHD1L ATPase; [3]) [µM] | other results
Cc1cc(Nc2ccc(NC(=O)Cc3cccs3)cc2)nc(N2CCCC2)n1 [Compound 6, N-(4-((6-methyl-2-(pyrrolidin-1-yl)pyrimidin-4-yl)amino)phenyl)-2-(thiophen-2-yl)acetamide] | 3 | 3 | 3 | 1.12 h | – | – | T1/2λ ([1]; single i.p. 50 mg/kg): 2.97 h; in vitro liver microsome half-life ([2]; listed as 6.0): 1.12 h
Cc1cc(Nc2ccc(NC(=O)Cc3c[nH]c4ccccc34)cc2)nc(N2CCCC2)n1 [Compound 6.5, 2-(1H-indol-3-yl)-N-(4-((6-methyl-2-(pyrrolidin-1-yl)pyrimidin-4-yl)amino)phenyl)acetamide] | – | – | – | – | more potent CHD1L inhibitors | – | CHD1L enzyme inhibition, in words (cat-CHD1L ATPase; listed as 57): good enzyme inhibition
Cc1cc(Nc2ccc(NC(=O)Cc3cc(Br)cs3)cc2)nc(N2CCCC2)n1 [Compound 6.11, 2-(4-bromothiophen-2-yl)-N-(4-((6-methyl-2-(pyrrolidin-1-yl)pyrimidin-4-yl)amino)phenyl)-acetamide] | 8 | 8 | 8 | 2.17 h and 2.172 h | more potent CHD1L inhibitors | – | in vivo half-life relative to compound 6 ([1]; 6.11 vs 6): 2.7 fold; half-life ([1]; plasma, ip): > 6 h; t1/2λ ([1]; oral gavage (p.o.) 50 mg/kg): 8 h; microsomal half-life relative to compound 6.0 ([2]; 6.11 vs 6.0): 2 fold; IC50 (cat-CHD1L ATPase): 1.3 µM; CHD1L enzyme inhibition, in words (cat-CHD1L ATPase; listed as 52): good enzyme inhibition
Cc1cc(Nc2ccc(NC(=O)Cc3cccc4ccccc34)cc2)nc(N2CCCC2)n1 [Compound 6.16, N-(4-((6-methyl-2-(pyrrolidin-1-yl)pyrimidin-4-yl)amino)phenyl)-2-(naphthalen-1-yl)acetamide] | – | – | – | – | more potent CHD1L inhibitors | 1.3 | CHD1L enzyme inhibition, in words (cat-CHD1L ATPase; listed as 54): good enzyme inhibition
Cc1cc(Nc2ccc(NC(=O)Cc3c[nH]c4cc(Cl)ccc34)cc2)nc(N2CCCC2)n1 [Compound 6.18, 2-(6-chloro-1H-indol-3-yl)-N-(4-((6-methyl-2-(pyrrolidin-1-yl)pyrimidin-4-yl)amino)phenyl)acetamide] | – | – | – | – | more potent CHD1L inhibitors | 1 | CHD1L enzyme inhibition, in words (cat-CHD1L ATPase; listed as 28): good enzyme inhibition
Cc1cc(Nc2ccc(NC(=O)Cc3c(C)[nH]c4ccccc34)cc2)nc(N2CCCC2)n1 [Compound 6.21, 2-(2-methyl-1H-indol-3-yl)-N-(4-((6-methyl-2-(pyrrolidin-1-yl)pyrimidin-4-yl)amino)phenyl)acetamide] | – | – | – | – | more potent CHD1L inhibitors | 1 | CHD1L enzyme inhibition, in words (cat-CHD1L ATPase; listed as 31): good enzyme inhibition

Values joined by “and” are separate entries in the source; they are usually repeats but may differ in a detail not shown here. Equal values may be shown once. Read-outs that look alike come from different tables or passages of the source.
